ChEMBL document CHEMBL1138050, “Furan-2-ylmethylene thiazolidinediones as novel, potent, and selective inhibitors of phosphoinositide 3-kinase gamma” (J Med Chem, 2006)

The chains behind the UniProt entries cited, without tags or fusion partners. Where a name states a change or a piece, a line headed by the entry shows the natural chain unless it says otherwise.
UniProt P48736: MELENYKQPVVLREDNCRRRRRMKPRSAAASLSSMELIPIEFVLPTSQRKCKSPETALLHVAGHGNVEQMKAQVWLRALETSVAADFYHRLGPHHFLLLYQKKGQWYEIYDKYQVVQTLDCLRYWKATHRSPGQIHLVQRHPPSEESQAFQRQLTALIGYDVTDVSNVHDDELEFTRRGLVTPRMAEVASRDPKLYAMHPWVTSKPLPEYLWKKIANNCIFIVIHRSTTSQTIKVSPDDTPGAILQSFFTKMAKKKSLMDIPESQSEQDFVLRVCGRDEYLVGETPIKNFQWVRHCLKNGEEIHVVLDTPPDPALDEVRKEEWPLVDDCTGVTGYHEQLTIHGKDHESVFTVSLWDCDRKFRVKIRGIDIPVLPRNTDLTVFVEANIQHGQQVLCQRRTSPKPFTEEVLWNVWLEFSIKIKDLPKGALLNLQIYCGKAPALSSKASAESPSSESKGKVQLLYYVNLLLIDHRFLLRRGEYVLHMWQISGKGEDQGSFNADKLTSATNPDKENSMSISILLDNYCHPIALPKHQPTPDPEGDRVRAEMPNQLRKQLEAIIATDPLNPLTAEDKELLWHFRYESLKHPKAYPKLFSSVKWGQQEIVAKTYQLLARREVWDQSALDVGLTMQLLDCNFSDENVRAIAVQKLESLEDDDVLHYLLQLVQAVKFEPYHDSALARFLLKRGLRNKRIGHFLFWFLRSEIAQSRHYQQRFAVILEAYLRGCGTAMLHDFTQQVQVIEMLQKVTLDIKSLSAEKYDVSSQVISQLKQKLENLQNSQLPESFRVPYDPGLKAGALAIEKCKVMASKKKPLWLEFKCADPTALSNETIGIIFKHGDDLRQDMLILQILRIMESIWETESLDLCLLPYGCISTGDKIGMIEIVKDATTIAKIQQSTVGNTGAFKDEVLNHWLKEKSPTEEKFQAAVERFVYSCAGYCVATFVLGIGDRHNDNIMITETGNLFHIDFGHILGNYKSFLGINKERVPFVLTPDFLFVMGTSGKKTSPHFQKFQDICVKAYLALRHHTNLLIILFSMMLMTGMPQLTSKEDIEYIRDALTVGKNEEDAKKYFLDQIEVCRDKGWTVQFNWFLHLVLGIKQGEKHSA
UniProt P67870, whole entry, looked up: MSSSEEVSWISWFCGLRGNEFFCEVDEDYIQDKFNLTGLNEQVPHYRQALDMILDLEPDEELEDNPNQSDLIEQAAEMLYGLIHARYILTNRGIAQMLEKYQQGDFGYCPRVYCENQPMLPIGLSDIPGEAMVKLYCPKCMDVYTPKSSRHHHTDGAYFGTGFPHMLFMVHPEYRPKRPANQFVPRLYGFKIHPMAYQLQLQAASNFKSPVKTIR
UniProt P68400, whole entry, looked up: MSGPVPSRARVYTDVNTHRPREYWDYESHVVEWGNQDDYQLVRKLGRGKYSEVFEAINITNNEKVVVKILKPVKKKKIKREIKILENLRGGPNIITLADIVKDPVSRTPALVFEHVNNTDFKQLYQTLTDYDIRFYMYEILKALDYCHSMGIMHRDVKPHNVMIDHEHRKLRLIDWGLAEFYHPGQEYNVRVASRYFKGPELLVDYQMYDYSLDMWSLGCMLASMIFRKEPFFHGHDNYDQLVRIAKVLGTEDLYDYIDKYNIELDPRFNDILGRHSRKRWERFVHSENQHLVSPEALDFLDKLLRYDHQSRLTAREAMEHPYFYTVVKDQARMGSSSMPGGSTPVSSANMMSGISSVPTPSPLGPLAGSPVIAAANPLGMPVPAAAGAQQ
UniProt P19784, whole entry, looked up: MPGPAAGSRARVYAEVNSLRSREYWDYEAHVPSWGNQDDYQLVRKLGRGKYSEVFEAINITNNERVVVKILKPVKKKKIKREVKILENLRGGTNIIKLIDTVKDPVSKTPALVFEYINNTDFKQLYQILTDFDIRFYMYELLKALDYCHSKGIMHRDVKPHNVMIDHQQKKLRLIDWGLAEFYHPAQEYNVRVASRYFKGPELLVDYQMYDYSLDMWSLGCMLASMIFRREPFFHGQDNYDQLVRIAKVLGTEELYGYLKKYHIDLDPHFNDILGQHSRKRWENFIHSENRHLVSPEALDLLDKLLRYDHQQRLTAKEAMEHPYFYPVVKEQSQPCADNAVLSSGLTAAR

Columns and labels:
[1] = target: Phosphatidylinositol 4,5-bisphosphate 3-kinase catalytic subunit gamma isoform (Homo sapiens, UniProt P48736); assay: Inhibition of human PI3Kgamma
[2] = target: Casein kinase II (Homo sapiens) (UniProt P67870+P68400+P19784); assay: Residual activity at human CK2 at 10 uM in presence of 10 uM ATP relative to control; type: protein-complex assay

SMILES | IC50 [1] [µM] | Activity [2] [%]
O=c1cc(N2CCOCC2)oc2c(-c3ccccc3)cccc12 [LY-294002] | 7.26 | 
O=C1NC(=O)/C(=C/c2ccc(-c3ccc(F)cc3O)o2)S1 |  | 6
